Binding of CDR-mutated scFvs to a peptide of the spike HR2 region

Data: MIT Lincoln Laboratory AlphaSeq set, Li et al. 2023, doi:10.1038/s41467-023-39022-2, as distributed in FLAb.

Target peptide (SARS-CoV-2 spike, HR2 region): PDVDLGDISGINAS

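The starting antibody came from a phage panning campaign against this peptide. This is the validation round: designs drawn from the data on random variants, tested in the same kind of assay. Their group label is 14H_GP_HC (GP: Gaussian process model; HC: hill climbing; a sequence that several methods proposed may carry one label only). In AlphaSeq, yeast of one mating type display the scFv and yeast of the other type display the target. Binding brings cells together so that they mate, and sequencing counts the barcode pairs among the diploids. Scores were corrected for input abundance and mapped to Kd with protein pairs of known affinity run in the same pool. The assay was run in six technical replicates.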

Parent: Ab-14, a human scFv built as VH, a 15-residue (Gly4Ser)3 linker, VL. Only the CDRs of the heavy chain vary.
VH: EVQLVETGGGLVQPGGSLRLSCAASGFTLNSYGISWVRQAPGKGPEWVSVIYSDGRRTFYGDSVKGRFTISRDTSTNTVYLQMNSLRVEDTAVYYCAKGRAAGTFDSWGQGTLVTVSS
VL: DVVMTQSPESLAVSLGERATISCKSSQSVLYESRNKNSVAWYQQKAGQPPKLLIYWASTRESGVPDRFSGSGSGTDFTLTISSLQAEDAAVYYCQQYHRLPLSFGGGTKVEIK

Each variant is given by its three heavy chain CDRs, as the data file delimits them; those of the parent are GFTLNSYGIS, VIYSDGRRTFYGDSVK, GRAAGTFDS.
Scale: log10 of Kd in nM, estimated from mating counts; low values are strong binders.
A pair that was not seen in that replicate is written "nd"; this usually means weak binding, but a binder can also be missed.
Nonspecific signal, from three strains lacking the peptide, appeared in 1% of pairings of all heavy chain designs, centred on 2.08 (5% of these signals below 0.84); values are not corrected for it. The control count says in how many pairings with the empty strains this scFv gave a signal, with their mean in brackets.
A sequence measured in both rounds can read differently, since the two assays cover different ranges.
In the paper, a design with two or fewer of six values counts as a poor binder.

| # | CDR-H1 | CDR-H2 | CDR-H3 | log10 Kd, replicates | empty controls |
|---|---|---|---|---|---|
| 1 | GFTLNQYGIS | VIYSDGRRTMYSDSVK | GRAAGTFDS | 0.57 0.96 0.60 0.51 0.49 1.15 | 0/18 |
| 2 | GFDLNEYGIS | VIYSDGRRTFYGDSVK | GRAAWTFDQ | nd nd nd nd nd nd | 0/18 |
| 3 | GFELDKYGIS | VIYSDGRRTFYGDSVK | GRTAGTFDS | 0.06 0.28 0.11 -0.58 -0.22 -0.35 | 0/18 |
| 4 | WFTLNSYGIS | VIYSDGRRTFYADSVK | GQLAGTFDS | 0.18 0.12 0.39 -0.09 0.03 0.51 | 0/18 |
| 5 | EFTLNSYGIS | VIYSDGRRTFYSDSVK | GEAGGTFDS | nd nd nd nd nd nd | 0/18 |
| 6 | GFTLNSYGIS | VIYSDGRRTFYTDSVK | GMIAGTFDS | 1.64 nd 0.32 -0.26 0.19 1.72 | 0/18 |
| 7 | GFTLNEYGIS | VIYSDGRRTFYGDSVK | GRVAGTFDD | -0.60 0.07 -0.54 -0.45 -0.19 0.13 | 0/18 |
| 8 | GFTLNEYGIS | VIYSDGERTFYADSVK | GRAAGTFDS | -0.24 -0.13 0.21 -0.17 0.24 0.51 | 0/18 |
| 9 | GFTLNDYGIS | VIYSDGRRTFYTDSVK | GRFAGTFDA | 0.44 0.20 0.33 0.18 0.56 0.36 | 0/18 |
| 10 | GFVLNDYGIS | VIYSDGRRTFYKDSVK | GRAAGTFDS | nd nd nd nd nd 2.57 | 1/18 (2.65) |
| 11 | GFTLKSYGIS | VIYADGRRTFYGDSVK | GRAAGTFKS | nd nd nd 1.24 nd nd | 0/18 |
| 12 | GFELNSYGIS | VIYSDGRRTFYDDSVK | GLLAGTFDS | 0.30 0.16 -0.16 0.12 -0.27 -0.10 | 2/18 (2.76) |
| 13 | GFTLNSYGIS | VIYSDGRRTFYSDSVK | GMAGGTFDV | nd 1.21 0.92 nd 0.96 1.30 | 0/18 |
| 14 | GFTLNEYGIS | VIYSDGRRTFYGDSVK | GCVAGTFDQ | nd 1.25 nd nd 0.73 1.04 | 0/18 |
| 15 | GFTLNSYGIS | VIYSDGKRTFYSDSVK | GRAAVTFDS | nd nd nd nd nd nd | 0/18 |
| 16 | GFTLNDYGIS | VIYSDGRRTFYHDSVK | GRAAGTFSS | 1.40 0.46 nd 3.24 nd nd | 0/18 |
| 17 | GFTLNEYGIS | VIYSDGRRTFYGDSVK | GRNAGTFDE | -0.44 0.15 0.14 -0.69 -0.46 0.13 | 0/18 |
| 18 | GFTLNDYGIS | VIYSDGLRTMYIDSVK | GRAAGTFDS | 1.10 0.73 0.07 0.92 0.10 0.51 | 0/18 |
| 19 | GFTLNEYGIS | VIYSDGRRTFYGDSVK | GRFAGTFTS | nd nd nd nd nd nd | 0/18 |
| 20 | GFTLNQYGIS | VIYSDGRRTFYSDSVK | GRTAGTFDT | -0.36 -0.40 -0.54 -0.60 -0.60 -0.38 | 1/18 (2.54) |
| 21 | GFTLNDYGIS | VIYSDGRRTQYIDDVK | GRAAGTFDS | 2.10 1.57 1.78 1.35 1.40 1.78 | 0/18 |
| 22 | GFELNDYGIS | VIYSDGRRTYYIDSVK | GRAAGTFDS | 2.59 2.17 2.91 nd 2.62 2.36 | 0/18 |
| 23 | GFELNEYGIS | VIYSDGRRTFYTDHVK | GRFAGTFDS | nd 1.00 1.12 0.89 1.20 1.35 | 0/18 |
| 24 | GFALNSYGIS | VIYSDGRRTFYDDSVK | GMEAGTFDS | 0.87 0.41 0.39 0.55 0.52 0.64 | 0/18 |
| 25 | GFTLNEYGIS | VIYSDGRRTFYKDSVK | GRAAGTFDT | 0.53 1.26 1.38 0.22 0.64 0.19 | 0/18 |
| 26 | GFTLNDYGIS | VIYSDGRRTQYTDSVK | GRAAGTFDT | 1.09 2.18 1.33 1.02 1.77 1.56 | 1/18 (3.23) |
| 27 | GFSLNMYGIS | VIYSDGRRTQYSDSVK | GRAAGTFDS | 0.77 1.19 1.48 1.62 1.19 1.43 | 0/18 |
| 28 | GFTLDSYGIS | VIYSDGRRTFYSDSVK | GRAAGTFDR | 1.32 0.88 1.01 1.06 0.95 1.38 | 1/18 (2.08) |
| 29 | GFDLNSYGIS | VIYSDGRRTFYLDSVK | GRLAGTFDS | 0.87 0.67 0.71 2.15 0.72 0.91 | 0/18 |
| 30 | GFTLNSYGIS | VIYSDGRRTFYSDSVK | GREAGTFMS | nd nd nd nd nd nd | 0/18 |
| 31 | GFTLNEYGIS | VIYSDGRRTMYSDSVK | GRAGGTFDS | nd nd nd nd nd nd | 0/18 |
| 32 | GFTLNEYGIS | VIYSDGRRTFYGDSVK | GRCAGTFDE | nd -0.10 nd nd -0.14 nd | 0/18 |
| 33 | GFSLNEYGIS | VIYSDGRRTFYCDSVK | GLAAGTFDR | 0.92 1.76 1.52 1.52 1.14 1.66 | 0/18 |
| 34 | GFTLNSYGIS | VIYSDGRRTFYKDSVK | GVAAGTFDS | 1.89 1.64 1.02 1.25 1.21 nd | 0/18 |
| 35 | GFHLNSYGIS | VIYSDGRRTFYSDSVK | GQAGGTFDS | nd nd nd nd nd nd | 0/18 |
| 36 | GFQLNDYGIS | VIYSDGRRTFYIDSVK | GRLAGTFDS | 1.04 1.11 1.61 1.44 1.85 1.01 | 0/18 |
| 37 | GFTLNEYGIS | VIYSDGRRTFYTDSVK | GREAGTFDR | 0.52 0.20 -0.01 -0.20 0.34 0.30 | 1/18 (2.97) |
| 38 | GFTLNEYGIS | VIYSDGRRTFYTDSVK | GRHAGTFVS | 0.96 0.20 -0.01 0.55 -0.36 1.27 | 0/18 |

From the list, the first 3 with no signal in any replicate:

| CDR-H1 | CDR-H2 | CDR-H3 | log10 Kd, replicates | empty controls |
|---|---|---|---|---|
| GFDLNEYGIS | VIYSDGRRTFYGDSVK | GRAAWTFDQ | nd nd nd nd nd nd | 0/18 |
| EFTLNSYGIS | VIYSDGRRTFYSDSVK | GEAGGTFDS | nd nd nd nd nd nd | 0/18 |
| GFTLNSYGIS | VIYSDGKRTFYSDSVK | GRAAVTFDS | nd nd nd nd nd nd | 0/18 |